{"sequences": {"note": "Protein sequences, listed by entry. Tags and fused reporters are not part of them.", "UniProt P31652, whole entry": "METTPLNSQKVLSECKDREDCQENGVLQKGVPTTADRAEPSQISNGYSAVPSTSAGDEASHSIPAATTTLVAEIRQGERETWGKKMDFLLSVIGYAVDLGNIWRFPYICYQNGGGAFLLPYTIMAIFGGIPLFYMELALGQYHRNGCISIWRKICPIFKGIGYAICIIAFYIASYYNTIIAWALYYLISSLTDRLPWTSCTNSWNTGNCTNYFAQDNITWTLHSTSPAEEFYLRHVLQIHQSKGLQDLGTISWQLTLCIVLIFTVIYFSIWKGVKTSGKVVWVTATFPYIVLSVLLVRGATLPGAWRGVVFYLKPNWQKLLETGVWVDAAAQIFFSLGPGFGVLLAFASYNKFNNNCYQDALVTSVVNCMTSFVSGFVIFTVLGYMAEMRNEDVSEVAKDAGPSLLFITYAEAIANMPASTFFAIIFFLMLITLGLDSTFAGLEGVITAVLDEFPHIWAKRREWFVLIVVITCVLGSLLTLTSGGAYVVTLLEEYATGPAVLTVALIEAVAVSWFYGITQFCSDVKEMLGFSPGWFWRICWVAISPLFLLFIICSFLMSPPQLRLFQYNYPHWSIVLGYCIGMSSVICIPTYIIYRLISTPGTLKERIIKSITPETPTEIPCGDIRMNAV"}, "source": "BindingDB's records for doi:10.1124/jpet.301.2.527", "about": "(Mercer University, 2002)", "biological_target": "Sodium-dependent serotonin transporter (Rattus norvegicus, UniProt P31652)"}
{"smiles": "COC(=O)[C@H]1[C@@H](OC(=O)c2ccccc2)C[C@@H]2CC[C@H]1N2C", "note": "[Cocaine (-)]", "values": [{"measurement": "Ki", "value": 401, "unit": "nM"}]}
